Consider one compound from ChEMBL document CHEMBL4364246, “Synthesis and biological evaluation of 5-aminoethyl benzophenanthridone derivatives as DNA topoisomerase IB inhibitors” (Eur J Med Chem, 2019).

This test relates to HCT-116. The test is described as follows: Resistance ratio of GI50 for human HCT116 cells expressing siTOP1 to GI50 for human HCT116 cells by MTT assay. The format is functional. In general terms: Formazan colour is commonly taken as a measure of viable cells.

In the case of `CNCCn1c(=O)c2cc(OC)c(OC)cc2c2ccc3cc4c(cc3c21)OCO4`, the Ratio is 8.9.
